Measurements published in patent US20130219529A1, “PROBE FOR A HAIR CELL, AND LABELLING METHOD FOR A HAIR CELL USING THE PROBE FOR A HAIR CELL” (CANON KABUSHIKI KAISHA, priority 2008, published 2013).

Tested on: hair cell of Zebrafish
Details: 5 μM chemical substance, 24 hours exposure, Zebrafish Day 7 after fertilization, stained with staining compound 54
Protocol: Zebrafish after exposure was washed with distilled water. The same operation as that in Example 1 was performed except that the staining compound (1) used in Example 1 was changed to a staining compound (54).

Change in staining intensity: Weakened
Substance: gentamicin
Auditory toxicity: Present
